# According to patent US20240139185A1, “COMPOUNDS THAT PARTICIPATE IN COOPERATIVE BINDING AND USES THEREOF” (Revolution Medicines, Inc., priority 2018, published 2024):
# Assays:
# cyclophilin A (CYPA) = cyclophilin A (CYPA) (Homo sapiens, UniProt P62937); assay: CYPA-compound binary complex formation by SPR; settings: read-out: CYPA Binding Affinity
# Procedure, shortened: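 Steady-state fit of SPR responses gave binding affinity. Analyte series: 50 μM downward, 2-fold, 10 points, running buffer HBS-P+ (0.05% Tween20, pH7.4, 2% DMSO), 60 s on/60 s off. Surface: biotinylated CypA-Avi captured at 4 μg/ml against a reference cell, regenerated with NaOH/guanidine.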
# [1] = molecular target: BRAF-GTP-KRAS-G12C complex (Homo sapiens, UniProt P01116+P62937, G12C); assay: KRAS-BRAF complex disruption through competition with CYPA-compound by TR-FRET; settings: read-out: BRAF-GTP-KRAS-G12C Disruption; biochemical BRAF-KRAS G12C-GTP disruption assay EC50, with CYPA
# Procedure, shortened: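 Compound-driven loss of KRAS–BRAF RBD TR-FRET signal, Eu-anti-His/APC-anti-GST pair (10/50 nM, 1.5 h), following a 3 h room-temperature preincubation of 50 nM His6-KRAS G12C-GTP and 500 nM CypA in 25 mM Hepes pH 7.3 buffer. EC50 by 4-parameter fit. Variants used wild-type KRAS in place of G12C or no CypA.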
# pERK in H358 cells = assay: pERK inhibition in H358 cells; settings: read-out: Cellular pERK inhibition, 4 hours treatment
# Procedure, shortened: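 Human lung cancer H358 cells in RPMI/10% FBS were exposed to compound or DMSO for 4 h. Fixed and permeabilized cells were stained overnight at 4 C with anti-phospho-ERK1/2 (Thr202/Tyr204). Near-infrared imaging read the pERK signal at 800 nm, with DRAQ5 at 700 nm.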
Kd (cyclophilin A (CYPA)),EC50 [1],IC50 (pERK in H358 cells),SMILES
> 15 µM,0.5 to 5 µM,> 10 µM,C=CC(=O)N1CCC(C(=O)N(C)[C@H](C(=O)N[C@H]2Cc3cc(O)cc(c3)-c3ccc4c(C(C)(C)C#N)cn(c4c3)CC(C)(C)COC(=O)[C@@H]3CCCN(N3)C2=O)C(C)C)CC1
> 15 µM,< 0.5 µM,< 1 µM,CCC(C#N)(CC)c1cn2c3cc(ccc13)-c1cc(O)cc(c1)C[C@H](NC(=O)[C@H](C(C)C)N(C)C(=O)C1CN(C(=O)CCl)C1)C(=O)N1CCC[C@H](N1)C(=O)OCC(C)(C)C2
5 to 15 µM,< 0.5 µM,< 1 µM,Cc1nn2c3cc(ccc13)-c1cc(O)cc(c1)C[C@H](NC(=O)[C@H](C(C)C)N(C)C(=O)C1CN(C(=O)CCl)C1)C(=O)N1CCC[C@H](N1)C(=O)OCC(C)(C)C2
< 5 µM,< 0.5 µM,1 to 10 µM,CC1COC(=O)[C@@H]2CCCN(N2)C(=O)[C@@H](NC(=O)[C@H](C(C)C)N(C)C(=O)C2CN(C(=O)CCl)C2)Cc2cc(O)cc(c2)-c2ccc3cc(C#N)n(c3c2)C1 (stereo partly drawn)
5 to 15 µM,0.5 to 5 µM,> 10 µM,CC#CC(=O)N1CC[C@H](C(=O)N(C)[C@H](C(=O)N[C@H]2Cc3cc(O)cc(c3)-c3ccc4c(C(C)(C)C#N)cn(c4c3)CC(C)(C)COC(=O)[C@@H]3CCCN(N3)C2=O)C(C)C)C1
< 5 µM,< 0.5 µM,< 1 µM,COc1cccc(-c2cn3c4cc(ccc24)-c2cc(O)cc(c2)C[C@H](NC(=O)[C@H](C(C)C)N(C)C(=O)C2CN(C(=O)CCl)C2)C(=O)N2CCC[C@H](N2)C(=O)OCC(C)(C)C3)c1C#N
> 15 µM,< 0.5 µM,1 to 10 µM,CC(C)[C@@H](C(=O)N[C@H]1Cc2cc(O)cc(c2)-c2ccc3c(C(C)(C)C#N)nn(c3c2)CC(C)(C)COC(=O)[C@@H]2CCCN(N2)C1=O)N(C)C(=O)C1CN(C(=O)CCl)C1
5 to 15 µM,< 0.5 µM,1 to 10 µM,CC(C)[C@@H](C(=O)N[C@H]1Cc2cc(O)cc(c2)-c2ccc3c(-c4cccc(CC#N)c4)cn(c3c2)CC(C)(C)COC(=O)[C@@H]2CCCN(N2)C1=O)N(C)C(=O)C1CN(C(=O)CCl)C1
5 to 15 µM,0.5 to 5 µM,< 1 µM,C=CC(=O)N1CC[C@H](C(=O)N(C)[C@H](C(=O)N[C@H]2Cc3cc(O)cc(c3)-c3ccc4c(c3)c(c(C#N)n4CC)CC(C)(C)COC(=O)[C@@H]3CCCN(N3)C2=O)C(C)C)C1
> 15 µM,< 0.5 µM,1 to 10 µM,CON=C(c1cn2c3cc(ccc13)-c1cc(O)cc(c1)C[C@H](NC(=O)[C@H](C(C)C)N(C)C(=O)C1CN(C(=O)CCl)C1)C(=O)N1CCC[C@H](N1)C(=O)OCC(C)(C)C2)C1CC1
5 to 15 µM,< 0.5 µM,> 10 µM,CC(C)[C@@H](C(=O)N[C@H]1Cc2cc(O)cc(c2)-c2ccc3c4c(n(c3c2)C[C@H](C)COC(=O)[C@@H]2CCCN(N2)C1=O)CCCC4=O)N(C)C(=O)C1CN(C(=O)CCl)C1
5 to 15 µM,< 0.5 µM,< 1 µM,CC(C)[C@@H](C(=O)N[C@H]1Cc2cc(O)cc(c2)-c2ccc3c(-c4cccc(F)c4C#N)cn(c3c2)CC(C)(C)COC(=O)[C@@H]2CCCN(N2)C1=O)N(C)C(=O)C1CN(C(=O)CCl)C1
> 15 µM,0.5 to 5 µM,> 10 µM,CC(C)[C@@H](C(=O)N[C@H]1Cc2cc(cc(C(F)F)c2)-c2ccc3c(C#N)cn(c3c2)C[C@H](C)COC(=O)[C@@H]2CCCN(N2)C1=O)N(C)C(=O)C1CN(C(=O)CCl)C1
5 to 15 µM,0.5 to 5 µM,1 to 10 µM,C=CC(=O)N1CC[C@H](C(=O)N(C)[C@H](C(=O)N[C@H]2Cc3cc(O)cc(c3)-c3ccc4c(c3)N(CC(C)(C)COC(=O)[C@@H]3CCCN(N3)C2=O)CC4(COC)COC)C(C)C)C1
5 to 15 µM,0.5 to 5 µM,> 10 µM,C=CC(=O)N1CC(C(=O)N(C)[C@H](C(=O)N[C@H]2Cc3cc(O)cc(c3)-c3ccc4c(C(C)(C)C#N)cn(c4c3)C[C@H](C)COC(=O)[C@@H]3CCCN(N3)C2=O)C(C)C)C1
< 5 µM,0.5 to 5 µM,1 to 10 µM,CC(C)[C@@H](C(=O)N[C@H]1Cc2cc(O)cc(c2)-c2ccc3c(C(C)(C)C#N)cn(c3c2)CC(C)(C)COC(=O)[C@@H]2CCCN(N2)C1=O)N(C)C(=O)[C@H]1CCN(C(=O)[C@@H](C)Cl)C1
5 to 15 µM,< 0.5 µM,1 to 10 µM,"CC(C)[C@@H](C(=O)N[C@H]1Cc2cc(O)cc(c2)-c2ccc3c(C(C)(C)C#N)cn(c3c2)CC(Cl)COC(=O)[C@@H]2CCCN(N2)C1=O)N(C)C(=O)C1CN(C(=O)CCl)C1 (single isomer, unassigned)"

Kd (cyclophilin A (CYPA)),EC50 [1],IC50 (pERK in H358 cells),SMILES
5 to 15 µM,< 0.5 µM,> 10 µM,Cc1nc2ccc3cc2n1CC(C)(C)COC(=O)[C@@H]1CCCN(N1)C(=O)[C@@H](NC(=O)[C@H](C(C)C)N(C)C(=O)C1CN(C(=O)CCl)C1)Cc1cc(O)cc-3c1
< 5 µM,0.5 to 5 µM,> 10 µM,CC(C)[C@@H](C(=O)N[C@H]1Cc2cc(O)cc(c2)-c2ccc3cc4n(c3c2)CC(COC4)COC(=O)[C@@H]2CCCN(N2)C1=O)N(C)C(=O)C1CN(C(=O)CCl)C1
< 5 µM,< 0.5 µM,< 1 µM,C=CC(=O)N1CC[C@H](C(=O)N(C)[C@H](C(=O)N[C@H]2Cc3cc(O)cc(c3)-c3ccc4c(c3)c(c(C#N)n4CC)CC(C)(C)COC(=O)[C@@H]3CCCN(N3)C2=O)[C@@H](C)CC)C1
< 5 µM,< 0.5 µM,< 1 µM,C=CC(=O)N1CC[C@H](C(=O)N(C)[C@H](C(=O)N[C@H]2Cc3cc(O)cc(c3)-c3ccc4c(c3)c(cn4CCC3CCOCC3)CC(C)(C)COC(=O)[C@@H]3CCCN(N3)C2=O)C(C)C)C1
> 15 µM,< 0.5 µM,< 1 µM,COc1ccccc1-c1c(C#N)c2ccc3cc2n1C[C@H](C)COC(=O)[C@@H]1CCCN(N1)C(=O)[C@@H](NC(=O)[C@H](C(C)C)N(C)C(=O)C1CN(C(=O)CCl)C1)Cc1cc(O)cc-3c1
5 to 15 µM,< 0.5 µM,1 to 10 µM,CC(C)[C@@H](C(=O)N[C@H]1Cc2cc(O)cc(c2)-c2ccc3c(C4(C#N)CC4)cn(c3c2)CC(C)(C)COC(=O)[C@@H]2CCCN(N2)C1=O)N(C)C(=O)C1CN(C(=O)CCl)C1
5 to 15 µM,> 5 µM,1 to 10 µM,C=CC(=O)N1CCC2(CC1)CCN([C@H](C(=O)N[C@H]1Cc3cc(O)cc(c3)-c3ccc4c(C(C)(C)C#N)cn(c4c3)CC(C)(C)COC(=O)[C@@H]3CCCN(N3)C1=O)C(C)C)C2=O
5 to 15 µM,0.5 to 5 µM,> 10 µM,CC(C)[C@@H](C(=O)N[C@H]1Cc2cc(O)cc(c2)-c2ccc3c(C(C)(C)C#N)cn(c3c2)CC(C)(C)COC(=O)[C@@H]2CCCN(N2)C1=O)N(C)C(=O)[C@H]1CCCN(C(=O)CCl)C1
< 5 µM,< 0.5 µM,1 to 10 µM,CC(C)[C@@H](C(=O)N[C@H]1Cc2cc(O)cc(c2)-c2ccc3c(c2)N(C[C@H](C)COC(=O)[C@@H]2CCCN(N2)C1=O)C(=O)C3(C)C)N(C)C(=O)C1CN(C(=O)CCl)C1
< 5 µM,0.5 to 5 µM,< 1 µM,C=CC(=O)N1CC[C@H](C(=O)N(C)[C@H](C(=O)N[C@H]2Cc3cc(O)cc(c3)-c3ccc4c(c3)N(CC(C)(C)COC(=O)[C@@H]3CCCN(N3)C2=O)CC42CCCOC2)C(C)C)C1 (stereo partly drawn)
> 15 µM,< 0.5 µM,< 1 µM,Cc1cn2c3cc(ccc13)-c1cc(O)cc(c1)C[C@H](NC(=O)[C@H](C(C)C)N(C)C(=O)C1CN(C(=O)CCl)C1)C(=O)N1CCC[C@H](N1)C(=O)OCC(C)(C)C2
< 5 µM,< 0.5 µM,1 to 10 µM,CC(C)[C@@H](C(=O)N[C@H]1Cc2cc(O)cc(c2)-c2ccc3c(c2)n(c(=O)n3C2CCOCC2)C[C@H](C)COC(=O)[C@@H]2CCCN(N2)C1=O)N(C)C(=O)C1CN(C(=O)CCl)C1
> 15 µM,0.5 to 5 µM,> 10 µM,CC(C)[C@H](C(=O)N[C@H]1Cc2cc(O)cc(c2)-c2ccc3c(C(C)(C)C#N)cn(c3c2)CC(C)(C)COC(=O)[C@@H]2CCCN(N2)C1=O)N(C)C(=O)C1CN(C(=O)CCl)C1
< 5 µM,< 0.5 µM,1 to 10 µM,CC(C)[C@@H](C(=O)N[C@H]1Cc2cc(O)cc(c2)-c2ccc3c(-c4ccc5scnc5c4)cn(c3c2)CC(C)(C)COC(=O)[C@@H]2CCCN(N2)C1=O)N(C)C(=O)C1CN(C(=O)CCl)C1
> 15 µM,< 0.5 µM,> 10 µM,CC(C)[C@@H](C(=O)N[C@H]1Cc2cc(O)cc(c2)-c2ccc3c(-c4cccc5c4OC(F)(F)O5)cn(c3c2)CC(C)(C)COC(=O)[C@@H]2CCCN(N2)C1=O)N(C)C(=O)C1CN(C(=O)CCl)C1
5 to 15 µM,0.5 to 5 µM,> 10 µM,CC(C)[C@@H](C(=O)N[C@H]1Cc2cc(O)cc(c2)-c2ccc3c(C(C)(C)C#N)cn(c3c2)CC(C)(C)COC(=O)[C@@H]2CCCN(N2)C1=O)N(C)C(=O)[C@@H]1CCCN(C(=O)CCl)C1
5 to 15 µM,< 0.5 µM,< 1 µM,CC[C@H](C)[C@@H](C(=O)N[C@H]1Cc2cc(O)cc(c2)-c2ccc3c(C(C)(C)C#N)cn(c3c2)CC(C)(C)COC(=O)[C@@H]2CCCN(N2)C1=O)N(C)C(=O)C1CN(C(=O)CCl)C1
